From patent publication EP0632806B1 (priority 1992, dated 1993)

Amino acid sequences for entries named in this document (tags omitted).
UniProt P15389, whole entry, looked up: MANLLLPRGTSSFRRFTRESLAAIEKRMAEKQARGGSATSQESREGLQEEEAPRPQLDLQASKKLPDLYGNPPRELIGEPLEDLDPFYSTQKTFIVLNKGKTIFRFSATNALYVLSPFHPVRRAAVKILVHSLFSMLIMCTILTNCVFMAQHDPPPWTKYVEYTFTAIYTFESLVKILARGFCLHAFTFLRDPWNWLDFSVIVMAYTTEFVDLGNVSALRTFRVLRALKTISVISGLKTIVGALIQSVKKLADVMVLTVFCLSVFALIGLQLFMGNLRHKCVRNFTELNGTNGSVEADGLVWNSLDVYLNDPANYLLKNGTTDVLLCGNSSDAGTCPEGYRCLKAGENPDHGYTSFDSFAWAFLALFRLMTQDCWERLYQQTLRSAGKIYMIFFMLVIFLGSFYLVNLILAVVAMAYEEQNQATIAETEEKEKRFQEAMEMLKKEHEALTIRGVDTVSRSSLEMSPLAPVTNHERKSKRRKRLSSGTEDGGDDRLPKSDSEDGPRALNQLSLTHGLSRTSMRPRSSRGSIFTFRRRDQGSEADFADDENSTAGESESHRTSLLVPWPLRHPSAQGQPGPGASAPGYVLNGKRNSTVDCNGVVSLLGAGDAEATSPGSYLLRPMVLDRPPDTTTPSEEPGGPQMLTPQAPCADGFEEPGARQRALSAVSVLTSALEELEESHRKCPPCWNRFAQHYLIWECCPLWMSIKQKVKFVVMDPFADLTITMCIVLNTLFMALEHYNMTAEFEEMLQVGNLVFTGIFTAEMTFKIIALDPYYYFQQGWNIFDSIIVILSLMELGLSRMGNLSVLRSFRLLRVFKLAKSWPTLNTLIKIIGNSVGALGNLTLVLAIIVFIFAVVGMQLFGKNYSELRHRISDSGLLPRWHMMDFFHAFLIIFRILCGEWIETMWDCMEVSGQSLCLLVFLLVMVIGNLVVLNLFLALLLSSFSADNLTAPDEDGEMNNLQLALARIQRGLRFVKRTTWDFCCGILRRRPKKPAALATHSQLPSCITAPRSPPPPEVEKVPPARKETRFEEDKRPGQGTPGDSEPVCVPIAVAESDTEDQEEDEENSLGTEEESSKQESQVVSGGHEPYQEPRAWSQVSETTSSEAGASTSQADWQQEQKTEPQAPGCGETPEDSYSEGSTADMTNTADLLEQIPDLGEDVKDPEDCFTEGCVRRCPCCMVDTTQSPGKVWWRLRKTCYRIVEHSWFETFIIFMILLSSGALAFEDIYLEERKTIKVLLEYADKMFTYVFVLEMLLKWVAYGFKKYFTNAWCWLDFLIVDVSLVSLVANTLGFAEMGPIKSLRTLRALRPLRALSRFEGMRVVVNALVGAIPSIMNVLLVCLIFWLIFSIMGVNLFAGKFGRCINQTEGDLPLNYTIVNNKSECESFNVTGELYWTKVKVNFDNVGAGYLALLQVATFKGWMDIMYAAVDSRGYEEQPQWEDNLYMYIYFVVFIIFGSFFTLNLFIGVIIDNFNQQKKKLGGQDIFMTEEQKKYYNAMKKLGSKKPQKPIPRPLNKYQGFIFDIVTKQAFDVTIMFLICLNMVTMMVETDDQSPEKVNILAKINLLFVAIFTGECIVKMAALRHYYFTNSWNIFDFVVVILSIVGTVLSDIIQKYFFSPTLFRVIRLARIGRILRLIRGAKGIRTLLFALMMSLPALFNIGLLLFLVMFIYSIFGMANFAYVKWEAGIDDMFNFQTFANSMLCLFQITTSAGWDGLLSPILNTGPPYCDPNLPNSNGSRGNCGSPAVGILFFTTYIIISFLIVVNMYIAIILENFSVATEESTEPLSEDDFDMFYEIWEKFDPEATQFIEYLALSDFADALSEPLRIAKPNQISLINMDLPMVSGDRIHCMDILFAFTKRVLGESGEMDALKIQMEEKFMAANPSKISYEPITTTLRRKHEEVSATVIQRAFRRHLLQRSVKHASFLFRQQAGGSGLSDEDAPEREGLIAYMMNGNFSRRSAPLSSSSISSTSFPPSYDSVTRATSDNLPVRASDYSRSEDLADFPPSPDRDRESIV

Experiments:
[1] = tested on: guinea pig; assay: Intradermal wheal assay for local anaesthesia; conditions: intradermal injection of approximately 0.1 ml; absence of flinch upon pin prick
[2] = tested on: potassium current; assay: Whole cell voltage clamp, potassium current; conditions: read-out: EC20 potassium current blockade, isolated adult rat cardiac cells
[3] = target: cardiac sodium channel (Rattus norvegicus, UniProt P15389); assay: Whole cell voltage clamp, sodium current; conditions: read-out: EC20 Sodium current reduction; concentration required to produce a 20% change; single isolated adult rat cardiac cells; in the presence of naloxone
[4] = tested on: pentobarbital anaesthetized rats; assay: Blood pressure, heart rate and EKG effects before coronary artery occlusion; format: in vivo, rat; conditions: for ED20 EKG P-R interval increase / ED20 EKG Q-T interval increase / ED20 EKG QRS interval increase: dose required to produce a 20% change, anaesthetized rats; for time to maximum electrophysiological effect: effects occur very rapidly
[5] = tested on: pentobarbital anaesthetized rats subject to coronary artery occlusion; assay: Antiarrhythmic efficacy against coronary artery occlusion induced arrhythmias; format: in vivo, rat; conditions: control value 88%, initial results

CN(C(=O)Cc1cccc2sccc12)[C@@H]1CCCC[C@H]1N1CCCC1 (racemic)
ED20 local anaesthesia [1]: 0.3 percent (g/100 ml) | IC20 [2]: 100 µM | IC20 [3]: 4 µM

CN(C(=O)Cc1ccc(Cl)c(Cl)c1)[C@@H]1CCCC[C@H]1N1CCCC1 (relative stereo)
ED20 EKG P-R interval increase [4]: 16 µmol/kg | ED20 EKG Q-T interval increase [4]: 32 µmol/kg | ED20 EKG QRS interval increase [4]: 32 µmol/kg | ED20 local anaesthesia [1]: > 0.5 percent (g/100 ml)

CN(C(=O)Cc1cccc2occc12)[C@H]1CC[C@@]2(CCCO2)C[C@@H]1N1CCCC1
ED20 EKG P-R interval increase [4]: 16 µmol/kg | ED20 EKG Q-T interval increase [4]: >32 µmol/kg | ED20 EKG QRS interval increase [4]: >32 µmol/kg | time to maximum electrophysiological effect [4]: one circulation time | incidents of fatal arrhythmias (VF) ([5]; 2 µmol/kg): 25% | incidents of fatal arrhythmias (VF) ([5]; 8 µmol/kg): 0% | ED20 local anaesthesia [1]: 0.5 percent (g/100 ml) | IC20 [3]: 10 µM

CN(C(=O)Cc1cccc2sccc12)[C@@H]1CCCC[C@H]1N1CCCC1
IC20 [3]: 2 µM

CN(C(=O)Cc1csc2ccccc12)[C@@H]1CCCC[C@H]1N1CCCC1 (racemic)
IC20 [3]: 4 µM

CN(C(=O)Cc1cccc2occc12)[C@@H]1CC[C@]2(CCCO2)C[C@H]1N1CCCC1
ED20 EKG P-R interval increase [4]: 10 µmol/kg | ED20 EKG Q-T interval increase [4]: 32 µmol/kg | ED20 EKG QRS interval increase [4]: >32 µmol/kg | time to maximum electrophysiological effect [4]: one circulation time

CN(C(=O)Cc1cccc2occc12)[C@@H]1CCC2(CCCO2)C[C@H]1N1CCCC1 (mixture of isomers)
IC20 [3]: 13 µM
